Biological target: Pim1 kinase (Homo sapiens (Human), UniProt P11309)
Assay: Pim1 ATP depletion assay
Assay type: biochemical
Details: 20 μM ATP, 40 μM BAD peptide, 2.5 nM PIM1
Experimental: The activity of PIM1 is measured using a luciferase-luciferin based ATP detection reagent to quantify ATP depletion resulting from kinase-catalyzed phosphoryl transfer to a peptide substrate. Compounds to be tested are dissolved in 100% DMSO and directly distributed into white 384-well plates at 0.5 μl per well. […] After 15 minutes, 10 μl of 40 μM ATP in assay buffer is added. Final assay concentrations are 2.5 nM PIM1, 20 μM ATP, 40 μM BAD peptide and 2.5% DMSO. The reaction is performed until approximately 50% of the ATP is depleted, then stopped with the addition of 20 μl KinaseGlo Plus (Promega Corporation) solution. The stopped reaction is incubated for 10 minutes and the remaining ATP detected via luminescence on the Victor2 (Perkin Elmer).

Amino acid sequences for entries named in this document (tags omitted).
UniProt P11309, whole entry: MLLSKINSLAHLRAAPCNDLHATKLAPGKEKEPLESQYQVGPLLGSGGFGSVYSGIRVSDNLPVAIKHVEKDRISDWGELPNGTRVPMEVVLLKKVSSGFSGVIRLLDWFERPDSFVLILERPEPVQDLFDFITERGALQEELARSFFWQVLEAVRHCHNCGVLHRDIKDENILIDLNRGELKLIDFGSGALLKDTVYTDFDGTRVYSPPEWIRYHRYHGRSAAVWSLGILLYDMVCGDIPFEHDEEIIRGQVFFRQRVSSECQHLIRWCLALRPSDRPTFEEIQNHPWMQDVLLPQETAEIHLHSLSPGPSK

Compound: C[C@H]1C[C@@H](c2ccncc2NC(=O)c2csc(-c3c(F)cccc3F)n2)C[C@@H](N)[C@H]1F (racemic) [Example 58, N-(4-((+/−)-3-amino-4-fluoro-5-methylcyclohexyl)pyridin-3-yl)-2-(2,6-difluorophenyl)thiazole-4-carboxamide]
- IC50: 4 nM

From patent US8829193B2, “PIM kinase inhibitors and methods of their use” (Novartis AG, priority 2008, dated 2014)
